Reference: ChEMBL document CHEMBL5338774, “Quinazoline-2-Carboxamides as Selective PET Radiotracers for Matrix Metalloproteinase-13 Imaging in Atherosclerosis” (J Med Chem, 2023)

Protein sequences, listed by entry. Tags and fused reporters are not part of them. Lines headed by an entry give the natural chain unless they say otherwise; changes in a name come on top.
UniProt P09238: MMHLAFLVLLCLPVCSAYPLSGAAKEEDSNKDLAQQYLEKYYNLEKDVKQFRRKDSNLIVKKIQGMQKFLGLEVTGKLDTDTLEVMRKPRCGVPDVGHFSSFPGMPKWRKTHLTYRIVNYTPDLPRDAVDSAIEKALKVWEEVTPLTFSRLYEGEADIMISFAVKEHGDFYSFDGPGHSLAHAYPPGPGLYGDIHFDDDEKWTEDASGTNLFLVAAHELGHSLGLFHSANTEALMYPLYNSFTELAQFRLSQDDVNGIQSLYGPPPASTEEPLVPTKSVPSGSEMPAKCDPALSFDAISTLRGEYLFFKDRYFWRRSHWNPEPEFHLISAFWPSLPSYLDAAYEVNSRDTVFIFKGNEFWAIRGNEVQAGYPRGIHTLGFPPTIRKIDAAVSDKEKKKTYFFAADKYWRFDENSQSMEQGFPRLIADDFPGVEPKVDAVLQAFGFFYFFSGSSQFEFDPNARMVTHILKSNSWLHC

Target: Stromelysin-2 (Homo sapiens, UniProt P09238)
Experiment: Inhibition of human recombinant MMP-10 using […]-Pro-Lys-Pro-Val-Glu-Nval-Trp-Arg-Lys(Dnp)-NH2 as substrate preincubated for 30 mins followed by substrate addition by fluorescence based analysis

A pIC50 of 7.16 was found for `CNC(=O)[C@@H](NC(=O)[C@H](CC(C)C)[C@H](O)C(=O)NO)C(C)(C)C` in this work.

pIC50: −log10 of the molar value.
